Results taken from PMC4977286 (Frontiers in Pharmacology, 2016).

By UniProt entry, the sequences of proteins in these tests, tags left out.
UniProt P08183, whole entry: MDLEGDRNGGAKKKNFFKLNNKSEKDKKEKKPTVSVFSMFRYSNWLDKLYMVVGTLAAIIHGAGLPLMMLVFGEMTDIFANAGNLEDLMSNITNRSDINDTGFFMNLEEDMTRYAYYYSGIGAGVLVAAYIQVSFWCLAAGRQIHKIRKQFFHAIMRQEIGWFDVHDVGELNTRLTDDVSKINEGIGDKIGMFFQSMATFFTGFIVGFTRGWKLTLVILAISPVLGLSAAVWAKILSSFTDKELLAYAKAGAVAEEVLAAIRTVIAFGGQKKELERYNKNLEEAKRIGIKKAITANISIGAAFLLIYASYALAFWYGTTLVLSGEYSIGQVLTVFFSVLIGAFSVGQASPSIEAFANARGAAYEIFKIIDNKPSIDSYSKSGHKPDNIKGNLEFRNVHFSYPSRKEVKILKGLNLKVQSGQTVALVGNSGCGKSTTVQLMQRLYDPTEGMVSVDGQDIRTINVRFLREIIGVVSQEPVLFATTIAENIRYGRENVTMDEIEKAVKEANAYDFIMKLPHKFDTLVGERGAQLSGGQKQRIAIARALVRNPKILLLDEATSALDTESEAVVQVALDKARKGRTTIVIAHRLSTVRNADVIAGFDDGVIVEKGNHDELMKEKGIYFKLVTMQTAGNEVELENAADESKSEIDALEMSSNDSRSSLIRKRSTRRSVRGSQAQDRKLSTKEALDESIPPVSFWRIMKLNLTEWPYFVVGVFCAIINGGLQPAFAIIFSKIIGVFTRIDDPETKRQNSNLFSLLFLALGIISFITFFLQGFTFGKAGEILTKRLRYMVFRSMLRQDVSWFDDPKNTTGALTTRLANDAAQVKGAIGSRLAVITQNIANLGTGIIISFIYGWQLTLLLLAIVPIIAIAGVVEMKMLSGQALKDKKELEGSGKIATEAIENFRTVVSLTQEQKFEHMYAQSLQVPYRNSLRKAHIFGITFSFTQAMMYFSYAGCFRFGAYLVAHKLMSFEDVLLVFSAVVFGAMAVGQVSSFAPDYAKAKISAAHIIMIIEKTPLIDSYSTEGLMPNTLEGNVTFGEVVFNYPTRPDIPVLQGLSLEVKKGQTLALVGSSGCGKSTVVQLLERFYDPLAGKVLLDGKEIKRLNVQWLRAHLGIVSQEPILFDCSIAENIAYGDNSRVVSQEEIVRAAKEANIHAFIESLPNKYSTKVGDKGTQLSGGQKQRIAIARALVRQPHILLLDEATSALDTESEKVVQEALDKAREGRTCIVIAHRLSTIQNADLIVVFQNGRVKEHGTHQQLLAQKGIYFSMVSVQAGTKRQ
UniProt Q92887, whole entry: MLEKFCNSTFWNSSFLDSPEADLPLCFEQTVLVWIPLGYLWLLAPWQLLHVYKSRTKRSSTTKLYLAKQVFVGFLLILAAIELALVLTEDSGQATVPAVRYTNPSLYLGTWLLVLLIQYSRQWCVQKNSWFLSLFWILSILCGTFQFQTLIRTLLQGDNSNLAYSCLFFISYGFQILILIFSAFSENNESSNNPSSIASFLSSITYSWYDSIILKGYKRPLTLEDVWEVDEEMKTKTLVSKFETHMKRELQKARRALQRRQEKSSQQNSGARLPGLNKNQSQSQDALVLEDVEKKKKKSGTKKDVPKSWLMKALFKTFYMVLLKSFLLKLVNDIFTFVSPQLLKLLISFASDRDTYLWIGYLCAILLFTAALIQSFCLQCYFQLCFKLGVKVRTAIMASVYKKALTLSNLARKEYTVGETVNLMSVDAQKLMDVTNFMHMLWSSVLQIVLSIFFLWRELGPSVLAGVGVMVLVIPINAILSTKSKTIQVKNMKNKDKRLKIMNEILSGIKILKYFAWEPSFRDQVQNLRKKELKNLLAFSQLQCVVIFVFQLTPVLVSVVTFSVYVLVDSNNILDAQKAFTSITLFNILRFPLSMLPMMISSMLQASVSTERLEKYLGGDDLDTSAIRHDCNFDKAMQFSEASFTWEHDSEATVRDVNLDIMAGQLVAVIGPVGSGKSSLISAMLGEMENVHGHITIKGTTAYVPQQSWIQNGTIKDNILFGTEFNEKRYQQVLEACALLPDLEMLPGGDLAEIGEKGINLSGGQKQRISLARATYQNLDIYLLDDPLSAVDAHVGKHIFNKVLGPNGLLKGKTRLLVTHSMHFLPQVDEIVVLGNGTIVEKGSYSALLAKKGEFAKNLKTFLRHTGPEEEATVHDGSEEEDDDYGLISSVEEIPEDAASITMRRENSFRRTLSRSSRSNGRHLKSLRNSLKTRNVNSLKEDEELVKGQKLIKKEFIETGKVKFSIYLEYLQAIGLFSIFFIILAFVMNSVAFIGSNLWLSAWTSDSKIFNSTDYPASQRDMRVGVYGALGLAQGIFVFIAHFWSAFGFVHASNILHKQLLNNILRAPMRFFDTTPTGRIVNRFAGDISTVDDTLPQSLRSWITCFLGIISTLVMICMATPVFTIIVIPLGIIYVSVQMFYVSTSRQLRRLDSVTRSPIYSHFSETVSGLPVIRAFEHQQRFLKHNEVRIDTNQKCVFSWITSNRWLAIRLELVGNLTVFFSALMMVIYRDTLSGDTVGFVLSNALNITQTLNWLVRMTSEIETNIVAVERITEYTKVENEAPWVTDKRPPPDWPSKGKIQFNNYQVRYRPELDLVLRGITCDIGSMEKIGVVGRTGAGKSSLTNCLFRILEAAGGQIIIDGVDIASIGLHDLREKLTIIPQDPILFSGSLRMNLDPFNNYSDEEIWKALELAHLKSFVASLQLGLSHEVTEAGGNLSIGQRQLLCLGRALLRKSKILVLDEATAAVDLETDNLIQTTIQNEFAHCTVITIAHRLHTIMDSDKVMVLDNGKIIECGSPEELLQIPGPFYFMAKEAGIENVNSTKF
UniProt Q9UNQ0, whole entry: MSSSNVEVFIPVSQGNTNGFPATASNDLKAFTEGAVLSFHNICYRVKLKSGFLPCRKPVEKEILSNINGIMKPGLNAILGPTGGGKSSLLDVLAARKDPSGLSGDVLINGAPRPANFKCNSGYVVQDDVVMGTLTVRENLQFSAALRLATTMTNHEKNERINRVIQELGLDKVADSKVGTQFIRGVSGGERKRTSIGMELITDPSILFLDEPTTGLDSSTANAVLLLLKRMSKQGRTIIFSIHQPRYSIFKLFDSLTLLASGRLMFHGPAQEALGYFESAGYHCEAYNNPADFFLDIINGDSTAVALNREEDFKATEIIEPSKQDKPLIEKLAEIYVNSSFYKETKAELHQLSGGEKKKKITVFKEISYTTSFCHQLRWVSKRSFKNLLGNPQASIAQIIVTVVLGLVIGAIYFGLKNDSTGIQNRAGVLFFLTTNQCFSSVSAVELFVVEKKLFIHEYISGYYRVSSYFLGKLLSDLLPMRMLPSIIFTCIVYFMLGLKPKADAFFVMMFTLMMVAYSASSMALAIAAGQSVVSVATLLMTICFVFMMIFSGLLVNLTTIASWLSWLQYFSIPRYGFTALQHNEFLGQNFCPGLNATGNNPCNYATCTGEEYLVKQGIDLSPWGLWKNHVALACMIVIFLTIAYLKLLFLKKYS

What was measured:
[1] = biological target: MDR1 (Homo sapiens, UniProt P08183); experiment: ATPase screening assay, MDR1 membrane; details: conclusion from ATPase assay
[2] = Pharmacokinetics in mice treated with siRNA; details: for AUC(0-t) / Cmax / MRT / t1/2: plasma, TNP 12 mg/kg intragastric
[3] = tested on: P-gp; experiment: Bile clearance of TNP in SCRH with P-gp inhibitors or inducer
[4] = ref Kong et al., 2007; Deng et al., 2012; cited from earlier work
[5] = tested on: sandwich-cultured rat hepatocytes (SCRH)
[6] = biological target: T1, MRP2 (Homo sapiens, UniProt Q92887); experiment: ATPase screening assay, MRP2 membrane; format: biochemical; details: TNP, TNP-G 30 mM, probenecid 100 mM, 37°C 40 min, blank 1.2 ± 0.5
[7] = biological target: T1, MRP2; experiment: Uptake in HepG2 cells transfected with MRP2 siRNA; details: 20 μM substrate
[8] = Biliary excretion in bile-duct cannulated (BDC) rats; format: in vivo, rat; details: TNP 12 mg/kg intragastric
[9] = Pharmacokinetic study in intact rats pretreated with tariquidar or probenecid; format: in vivo, rat; details: for AUC(0-t) / Cmax / MRT / T1/2: plasma, TNP 12 mg/kg intragastric
[10] = rats, within 24 h; ref Kong et al., 2007; cited from earlier work
[11] = biological target: BCRP (Homo sapiens, UniProt Q9UNQ0); experiment: ATPase screening assay, BCRP membrane; details: TNP, TNP-G, sulfasalazine 1 mM, 37°C 30 min, blank 6.4 ± 1.7
[12] = ref previous study; cited from earlier work
[13] = tested on: Caco-2 monolayer; details: cyclosporine A and MK571 increased the apparent permeability of TNP; ref Li et al., 2010; cited from earlier work
[14] = biological target: P-gp (Homo sapiens, UniProt P08183); experiment: Uptake in HepG2 cells transfected with mdr1a siRNA; details: 20 μM substrate
[15] = TNP + probenecid 200 mg/kg i.v.

In the case of `COC12CCC3(CC1C(C)(O)CCc1cccs1)C1Cc4ccc(O)c5c4C3(CCN1CC1CC1)C2O5` (stereo not drawn), the “Transporter substrate finding, MDR1” value [1] is reported as “substrate of MDR1”, the “increase in AUC compared to the control group” value ([2]; mdr1a siRNA) is reported as 3.4 fold and the “increase in Cmax compared to the control group” value ([2]; mdr1a siRNA) is reported as 5.6 fold. The “AUC(0-t)” value ([2]; TNP + NC-siRNA) was 209.64 ± 40.5 ng·h/mL, the Cmax ([2]; TNP + NC-siRNA) was 38.0 ± 12.6 ng/mL and the MRT ([2]; TNP + NC-siRNA) was 4.57 ± 0.46 h. For the same molecule, the t1/2 ([2]; TNP + NC-siRNA) was 5.1 ± 1.1 h, the “AUC(0-t)” value ([2]; TNP + mdr1a siRNA) was 708.6 ± 103.8 ng·h/mL and the Cmax ([2]; TNP + mdr1a siRNA) was 211.9 ± 61.3 ng/mL. The MRT ([2]; TNP + mdr1a siRNA) was 3.29 ± 0.28 h, the t1/2 ([2]; TNP + mdr1a siRNA) was 5.1 ± 2.1 h and the “CLbile,int of TNP” value ([3]; quercetin 0 μM (control)) was 11.7 ± 1.0 mL/min/kg. For the same molecule, the “CLbile,int of TNP” value ([3]; tariquidar 0 μM (control)) was 16.5 ± 1.0 mL/min/kg, the duration of excretion [4] was ~ 2 weeks and the “CLbile,pred (plasma total concentration) relative to measured CLbile,obs” value ([5]; SCRH prediction vs rats) was ~ 2 fold. For the same molecule, the “average BEI (biliary excretion index)” value ([5]; SCRH, 20 μM, 60 min incubation) was 14.5 ± 0.9, the “CLbile, int From Eq. 2” value ([5]; SCRH, in vitro intrinsic biliary clearance scaled to body weight) was 5.8 ± 0.5 mL/min/kg and the “CLbile,pred From Eq. 3” value ([5]; predicted in vivo from SCRH CLbile,int, total concentration (fu,p = 1), Qp 40 ml/min/kg) was 5.0 ± 0.4 mL/min/kg. The “CLbile,pred From Eq. 4” value ([5]; predicted in vivo from SCRH CLbile,int, with plasma unbound fraction) was 0.3 ± 0.02 mL/min/kg, the “Vanadate-sensitive ATPase activities, MRP2” value [6] was 0.8 ± 0.2 nmol/min/mg and the “intracellular concentration, increase compared with the NC-siRNA group” value [7] was “not impacted”. For the same molecule, the “recovery in bile, % of the TNP dose” value ([8]; BDC rats, control group, 24 h) was “less than 1%”, the “CLbile,obs From Eq.5” value ([8]; rats, bile amount 0–24 h / AUC0–24h) was 2.4 ± 0.1 mL/min/kg and the “AUC(0-t)” value [9, 15] was 39.5 ± 16.8 ng·h/mL. For the same molecule, the Cmax [9, 15] was 24.2 ± 3.8 ng/mL, the MRT [9, 15] was 7.4 ± 3.9 h and the T1/2 [9, 15] was 5.6 ± 2.6 h. For the same molecule, the “AUC(0-t)” value ([9]; TNP + saline) was 38.9 ± 23.8 ng·h/mL, the Cmax ([9]; TNP + saline) was 16.2 ± 7.8 ng/mL and the MRT ([9]; TNP + saline) was 12.2 ± 2.2 h. The T1/2 ([9]; TNP + saline) was 7.8 ± 1.4 h, the “AUC(0-t)” value ([9]; TNP + tariquidar 10 mg/kg i.v.) was 119.0 ± 68.6 ng·h/mL and the Cmax ([9]; TNP + tariquidar 10 mg/kg i.v.) was 47.3 ± 8.1 ng/mL. The MRT ([9]; TNP + tariquidar 10 mg/kg i.v.) was 6.4 ± 3.3 h, the T1/2 ([9]; TNP + tariquidar 10 mg/kg i.v.) was 3.4 ± 1.7 h and the “increase in the AUC compared with the control group” value ([9]; tariquidar treated group) was 3.1 fold. The “increase in the Cmax compared with the control group” value ([9]; tariquidar treated group) was 2.9 fold, the “oral dose excreted from bile” value [10] was 24% and the “Vanadate-sensitive ATPase activities, BCRP” value [11] was 5.9 ± 0.8 nmol/min/mg. For the same molecule, the fu,p (plasma unbound fraction) [12] was 0.05, the “Transporter substrate finding, Caco-2 monolayer transport” value [13] was “substrate of P-gp and MRP2” and the “intracellular concentration, increase compared with the NC-siRNA group” value [14] was 1.9 fold.
